Values quoted from earlier work, collected in US20150202224A1, “METHOD OF TREATING IRON DEFICIENCY ANEMIA” (Luitpold Pharmaceuticals, Inc., priority 2012, published 2015).

Tests used:
[1] = in vivo, iv; cited from earlier work
[2] = nearly neutral; cited from earlier work

Substance: iron dextran
- projected calculated terminal half-life (t½) [1]: 72 to 96 h

Substance: polynuclear iron (III)-hydroxide 4(R)-(poly-(1→4)-O-α-glucopyranosyl)-oxy-2(R),3(S),5(R),6-tetrahydroxy-hexanoate [FCM]
- pH [2]: 5.0 to 7.0
